The record followed here is paper doi:10.1101/2023.06.06.543836.

By UniProt entry, the sequences of proteins in these tests, tags left out. Where a name states a change or a piece, a line headed by the entry shows the natural chain unless it says otherwise. Residues count along the entry.
UniProt P63158: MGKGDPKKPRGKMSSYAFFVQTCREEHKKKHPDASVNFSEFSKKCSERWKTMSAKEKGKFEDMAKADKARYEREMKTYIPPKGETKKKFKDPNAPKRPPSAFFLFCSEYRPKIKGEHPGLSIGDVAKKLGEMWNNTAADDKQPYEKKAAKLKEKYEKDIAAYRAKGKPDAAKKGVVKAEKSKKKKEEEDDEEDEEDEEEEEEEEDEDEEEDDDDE
UniProt P48061, 22-89: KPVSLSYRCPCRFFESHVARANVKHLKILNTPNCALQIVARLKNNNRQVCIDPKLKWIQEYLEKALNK

This assay concerns the target Ac-pep with a tyrosine added at the N-terminus (ITC form) (UniProt P63158). Description: ITC.

Take “CXCL12 (chemokine (C-X-C motif) ligand 12) (from UniProt P48061 22-89) (natural protein)”: the Kd1 (apparent, two-site model) was 0.6 µM and the Kd2 (apparent, two-site model) turned out to be 0.1 µM.
